Reference: patent publication US20260249027A1, “METERED DOSE INHALERS AND HIGH-DOSE SUSPENSIONS” (Kindeva Drug Delivery L.P., priority 2023, published 2026)

Assay: Through life dose consistency of salbutamol sulfate pMDI suspensions (USP <601>, apparatus A)
Type: physicochemical
[1] = nominal ex-valve 0.5 mg/act, HFA-152a
[2] = nominal ex-valve 0.5 mg/act, HFO-1234ze(E)
[3] = nominal ex-valve 1.0 mg/act, HFA-152a
[4] = nominal ex-valve 1.0 mg/act, HFO-1234ze(E)
[5] = nominal ex-valve 2.0 mg/act, HFA-152a
[6] = nominal ex-valve 2.0 mg/act, HFO-1234ze(E)

salbutamol sulfate
through unit life ex-actuator delivered dose consistency (HFA-152a or HFO-1234ze(E)): relatively consistent | EoL mean delivered dose [1]: 308.5 μg/act | MoL mean delivered dose [1]: 307.7 μg/act | SoL mean delivered dose [1]: 310.1 μg/act | TL mean delivered dose [1]: 308.8 μg/act | EoL mean delivered dose [2]: 288.5 μg/act | MoL mean delivered dose [2]: 289.8 μg/act | SoL mean delivered dose [2]: 309.9 μg/act | TL mean delivered dose [2]: 296.1 μg/act | EoL mean delivered dose [3]: 664.3 μg/act | MoL mean delivered dose [3]: 634.3 μg/act | SoL mean delivered dose [3]: 637.8 μg/act | TL mean delivered dose [3]: 645.5 μg/act | EoL mean delivered dose [4]: 705.1 μg/act | MoL mean delivered dose [4]: 584.2 μg/act | SoL mean delivered dose [4]: 477.0 μg/act | TL mean delivered dose [4]: 588.8 μg/act | EoL mean delivered dose [5]: 1631.7 μg/act | MoL mean delivered dose [5]: 1097.0 μg/act | SoL mean delivered dose [5]: 1137.8 μg/act | TL mean delivered dose [5]: 1190.9 μg/act | EoL mean delivered dose [6]: 1398.8 μg/act | MoL mean delivered dose [6]: 1232.6 μg/act | SoL mean delivered dose [6]: 1097.1 μg/act | TL mean delivered dose [6]: 1223.3 μg/act
